We go through 33 compounds from PubChem BioAssay AID588413 (Sanford-Burnham Center for Chemical Genomics, 2011).

Structures are written as SMILES. This is a selection; strong and weak results do not stand in their true shares. Activity calls are given as the source filed them.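 The calls were made as follows: active = inhibition above about 55% (limit read from the data); inactive = the rest.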

Broadly, the inhibition is the relative decrease from the control value, in per cent.

The nature of the test: blockers of Gli reporter signaling – luciferase luminescence, Sufu-KO-LIGHT cells, uHTS, primary screen (AID 588413).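 Also: 0% = DMSO-treated cells and 100% = wells with medium but no cells.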 The settings on record: Sufu-KO-LIGHT fibroblasts, at 5 µM, hits give high values.
As for `Cc1nc2ccc3ccccc3c2s1.O=[N+]([O-])c1cc([N+](=O)[O-])c(O)c([N+](=O)[O-])c1`, the inhibition is inactive: -0.82%. The result for `O=[N+]([O-])c1cc([N+](=O)[O-])c(-c2cnn(-c3ccccc3)c2)c([N+](=O)[O-])c1` reads inactive: 13.3%; that for `O=[N+]([O-])c1cc([N+](=O)[O-])c(-n2nnc3ccccc32)c([N+](=O)[O-])c1`, inactive: 33.8%; that for `Cc1ccc(C)c(NP(C)(=O)Oc2ccccc2)c1` (stereo not drawn), inactive: -3.13%.

In the case of `CP(=O)(Nc1cccc(Br)c1)Oc1ccccc1` (stereo not drawn), the inhibition was inactive: 0.23%. For the compound `Cc1cc(C)cc(OP(C)(=O)Nc2ccccn2)c1` (stereo not drawn), the inhibition is inactive: -1.21%. The result for `CCOC(=O)c1ccc(NP(C)(=O)Oc2cc(C)cc(C)c2)cc1` (stereo not drawn) reads inactive: 1.47%. The result for `Cc1cc(C)cc(OP(C)(=O)Nc2ccc(C)cc2C)c1` (stereo not drawn) reads inactive: 0.71%; that for `COc1ccccc1OP(C)(=O)Nc1cccc(Br)c1` (stereo not drawn), inactive: 6.6%; that for `CC1=NCCc2c1[nH]c1ccccc21.O=[N+]([O-])c1cc([N+](=O)[O-])c(O)c([N+](=O)[O-])c1`, inactive: -5.63%. The result for `O=C(O)c1cccc(Nc2c([N+](=O)[O-])cc([N+](=O)[O-])cc2[N+](=O)[O-])c1` reads inactive: -0.2%. With `COc1ccc(OP(C)(=O)Nc2cccc(F)c2)cc1` (stereo not drawn), the inhibition was inactive: 19.5%. The result for `COc1ccccc1OP(C)(=O)Nc1cc(Cl)ccc1C` (stereo not drawn) reads inactive: 7.44%; that for `Cc1ccc(NP(C)(=O)Oc2ccccc2)c(C)c1` (stereo not drawn), inactive: -17.7%.

On to `COc1ccccc1OP(C)(=O)Nc1ccc(C)cc1` (stereo not drawn), for which the inhibition was inactive: 6.75%. As to `CCOC(=O)c1ccc(NP(C)(=O)Oc2ccccc2)cc1` (stereo not drawn), the inhibition is inactive: -0.03%. In the case of `O=[N+]([O-])c1ccc2c(c1)C=Nc1ccccc1O2`, the inhibition was inactive: 42.6%. The result for `Cc1cccc(C)c1OP(C)(N)=O` (stereo not drawn) reads inactive: -10.7%; that for `O=[N+]([O-])c1cc([N+](=O)[O-])c(Nc2cccnc2)c([N+](=O)[O-])c1`, inactive: 27.5%; that for `CCN(CC)CCCOC(=O)C(O)(c1ccccc1)c1ccccc1`, inactive: -7.14%. As to `CP(=O)(Nc1ccccn1)Oc1ccc(Cl)cc1` (stereo not drawn), the inhibition was inactive: -0.69%. The result for `O=[N+]([O-])c1cc([N+](=O)[O-])c(O)c([N+](=O)[O-])c1.c1ccc(Oc2ccncc2)cc1` reads inactive: -6%. With `CCOC(=O)c1ccc(NP(C)(=O)Oc2ccc(OC)cc2)cc1` (stereo not drawn), the inhibition is inactive: -3.29%. The result for `CCOP(C)(=S)SCC(=O)NC(C)C(=O)O` (stereo not drawn) reads inactive: 3.22%; that for `Cc1cc(C)cc(OP(C)(=O)Nc2ccc(SC(F)(F)F)cc2)c1` (stereo not drawn), inactive: 4.79%. The result for `CCc1ccc(OP(C)(=O)N2CCN(c3ccc([N+](=O)[O-])cc3)CC2)cc1` (stereo not drawn) reads inactive: 8.28%; that for `CP(=O)(NC(=O)Nc1ccccc1)Oc1ccccc1` (stereo not drawn), inactive: -5.01%.

With `CP(=O)(Oc1ccccc1)OC(c1ccccc1)C(F)(F)F` (stereo not drawn), the inhibition was inactive: 13.5%. The result for `CP(=O)(Nc1ccc(SC(F)(F)F)cc1)Oc1ccc(Cl)cc1` (stereo not drawn) reads inactive: 1.48%; that for `Cc1cccc(C)c1OP(C)(=O)Nc1ccc(SC(F)(F)F)cc1` (stereo not drawn), inactive: 4.55%; that for `CP(=O)(Nc1ccccc1Br)Oc1ccccc1` (stereo not drawn), inactive: -1.95%. The result for `COc1ccccc1OP(C)(=O)Nc1ccccc1` (stereo not drawn) reads inactive: 1.22%.

In the case of `CP(=S)(Nn1cnnc1)Oc1ccccc1` (stereo not drawn), the inhibition is inactive: -20.6%.
